Experiments:
Escherichia coli = details: ATCC 25922
Pseudomonas aeruginosa = details: ATCC 27853

GENTAMICIN
MIC (Escherichia coli): 0.5 µg/mL | MIC (Pseudomonas aeruginosa): 0.5 µg/mL

From ChEMBL document CHEMBL3994659, “Synthesis and antimicrobial evaluation of cationic low molecular weight amphipathic 1,2,3-triazoles” (Bioorg Med Chem Lett, 2017)
